Curated experimental data: water solubility values

From the experimental data distributed with OPERA 2.9.

Solubility in water is on a log10 molar scale (set defined at 25 °C).
"n/a" marks a cell with nothing listed here.

SMILES | name | log S (log10 mol/L)
COCCCOc1cc(C[C@@H](C[C@H](N=[N+]=[N-])[C@@H]2C[C@@H](C(C)C)C(=O)O2)C(C)C)ccc1OC | n/a | -5.851
CC(C)C(=O)OCCOc1ccccc1 | 2-Phenoxyethyl isobutyrate | -3.026
CC(C)c1ccc(N)cc1 | Cumidine | -1.787
CCOC(=O)[C@H](Cc1c[nH]c2ccccc12)N(C)C=O | Ethyl N-formyl-N-methyltryptophanate | -2.27
CCN(CC)C(=O)Cn1cnc2c1c(=O)n(C)c(=O)n2C | n/a | -0.923
CCN(CC)CCOC(=O)c1ccc(N)cc1Cl | Chloroprocaine | -2.319
C=CCCCCCCCCC(=O)OC | Methyl 10-undecenoate | -5.398
NC(N)=NCCCCCC(=O)O | epsilon-Guanidinocaproate | -2.387
Brc1cccc2c1-c1ccccc1C21c2ccccc2-c2ccccc21 | n/a | -7.296
S=C(SCc1ccccc1)SCc1ccccc1 | Carbonotrithioic acid, bis(phenylmethyl) ester | -5.932
CCCn1cnc2c1c(=O)n(C)c(=O)n2C | Theophylline, n-propyl derivative | 0.017
O=C1c2ccccc2C(=O)N1C[C@H]1CO1 | 2-{[(2S)-Oxiran-2-yl]methyl}-1H-isoindole-1,3(2H)-dione | -2.187
CC(=O)OCC(COC(C)=O)(COC(C)=O)COC(C)=O | Pentaerythritol tetraacetate | -1.57
CCCCc1nc(Cl)c(CO)n1Cc1ccc(-c2ccccc2-c2nnn(C(c3ccccc3)(c3ccccc3)c3ccccc3)n2)cc1 | Trityllosartan | -6.461
CCC(CCC(C)C)C(=N)O (stereo not given) | 2-Ethyl-5-methylhexanimidic acid | -2.352
CCCCCCN(CCCCCC)CCCCCC | N,N-Dihexyl-1-hexanamine | -4.81
CC(C)[C@@H]1CC[C@@H](C)C[C@H]1OC(=O)OCCO | Menthyl glycol carbonate | -3.218
CCCCCCCCCCCCCCCCCC(=O)OCCCC | Octadecanoic acid, butyl ester | -2.3
N[C@H](Cc1cc(I)c(Oc2cc(I)c(O)c(I)c2)c(I)c1)C(=O)O | Dextrothyroxine | -4.937
COc1cc(OC)nc(NC(=O)Oc2ccccc2)n1 | n/a | -3.614
CCCCCCCCCCCCCCCCNC(=O)c1cccnc1 | N-Hexadecyl-3-pyridinecarboxamide | -2.96
O=C(O)c1c(F)cccc1F | 2,6-Difluorobenzoic acid | -1.71
CN1CCCCC1CCN1c2ccccc2Sc2ccc(S(C)=O)cc21 (stereo not given) | Mesoridazine | -3.702
CC(=O)Oc1cc2c(s1)CCN(C(C(=O)C1CC1)c1ccccc1F)C2 (stereo not given) | Prasugrel | -5.197
CC(=O)OC(C)CC(C)(C)c1ccccc1 (stereo not given) | 1,3-Dimethyl-3-phenylbutyl acetate | -3.416
O=C1CCCCCCCCCCCC(=O)OCCO1 | 1,4-Dioxacycloheptadecane-5,17-dione | -4.245
CC(O)CNS(=O)(=O)CCCS(=O)(=O)c1ccc(C#N)c(C#N)c1 (stereo not given) | n/a | -3.239
Clc1cc(Cl)c(Oc2c(Cl)c(Cl)c(Cl)c(Cl)c2Cl)cc1Cl | 2,2',3,4,4',5,5',6-Octachloro-diPh ether | -10.14
CC(C)(C)OC(=O)N[C@@H](Cc1ccccc1)[C@@H](O)CN(Cc1ccc(-c2ccccn2)cc1)NC(=O)OC(C)(C)C | n/a | -6.058
CC(C)(C1CCC(OCC2CO2)CC1)C1CCC(OCC2CO2)CC1 (stereo not given) | n/a | -3.747
CC(COc1ccc(C(C)(C)C)cc1)OS(=O)OCCCl (stereo not given) | Aramite | -5.75
CCCCCC(=Cc1ccccc1)C(OCC)OCC | 2-Diethoxymethyl-1-phenylhept-1-ene | -5.172
Nc1nc(=O)c2ncc(=O)[nH]c2[nH]1 | 2-Amino-4,7(1H,8H)-pteridinedione | -4.548
CC1C(C)(C)C2=C(c3ncncc3CC2)C1(C)C (stereo not given) | n/a | -4.788
CCCCCCCCC=CCCCCCCCC(=O)OCCC | n/a | -8.059
C[C@@H](NCCCc1cccc(C(F)(F)F)c1)c1cccc2ccccc12 | Cinacalcet | -6.806
CC(C)=CCCc1ccc2c(c1)C(=O)c1ccccc1C2=O | n/a | -7.986
COc1cc([C@@H]2c3cc4c(cc3[C@@H](O[C@@H]3O[C@@H]5CO[C@@H](c6cccs6)O[C@H]5[C@H](O)[C@H]3O)[C@H]3COC(=O)[C@H]23)OCO4)cc(OC)c1O | Teniposide | -4.041
CCCCCCCCCCCCc1ccc(S(=O)(=O)[O-])cc1.CCCCCCCCCCCCc1ccc(S(=O)(=O)[O-])cc1.CCCCCCCCCCCCc1ccc(S(=O)(=O)[O-])cc1.CCCCCCCCCCCCc1ccc(S(=O)(=O)[O-])cc1.[Ce+4] | Benzenesulfonic acid, 4-dodecyl-, cerium(4+) salt, basic | -4.929
CCN[C@H]1CN(CCCOC)S(=O)(=O)c2sc(S(N)(=O)=O)cc21 | Brinzolamide | -2.731
CCCCCCCCCCCCN1CC(C(=O)OC)CC1=O (stereo not given) | n/a | -4.376
CC(=O)OC1CCCCC1 | Cyclohexyl acetate | -1.67
CCCOC(=O)c1ccc(N)cc1 | Risocaine | -2.33
CC[C@]1(C/C=C2\CCCc3cc(OC)ccc32)C(=O)CC[C@@H]1O | n/a | -4.123
CCCC(=O)OCCC(C)CCC=C(C)C (stereo not given) | Citronellyl butyrate | -5.143
CN(C)c1ccc(C(=N)c2ccc(N(C)C)cc2)cc1 | Auramine | -1.429

Excerpt, the opening 3 entries:

SMILES	name	log S (log10 mol/L)
COCCCOc1cc(C[C@@H](C[C@H](N=[N+]=[N-])[C@@H]2C[C@@H](C(C)C)C(=O)O2)C(C)C)ccc1OC	n/a	-5.851
CC(C)C(=O)OCCOc1ccccc1	2-Phenoxyethyl isobutyrate	-3.026
CC(C)c1ccc(N)cc1	Cumidine	-1.787

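The numbers are reported measurements, compiled and curated for the OPERA QSAR suite. The files give a single number for a compound and property, which may rest on several reports. How each value was measured is not recorded, so precision varies. The measured form (salt, isomer or mixture) is not always the one drawn. Unmarked limits or estimates from the upstream databases cannot be ruled out.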